Test system: parental wild-type Ba/F3 cells
Experiment: Ba/F3 (WT) cell proliferation assay (Alamar Blue)
Type: cell-based
Details: read-out: BaF3 WT prolif, 72 hours

Structure (SMILES): Cc1cc(-c2ccn3c(-c4cccc(NC(=O)NCC(F)(F)F)c4)cnc3c2)cnc1F
- IC50: 1800 nM
